Reference: ChEMBL document CHEMBL1255346 (2008)

System: Serratia marcescens
Details: isolate S1 to S21

GENTAMICIN gave an MIC of 0.5 µg/mL.
